Experimental findings from PubChem BioAssay AID2599 (Sanford-Burnham Center for Chemical Genomics, 2010) are described below.

Protein sequences, listed by entry. Tags and fused reporters are not part of them. Residues count along the entry.
UniProt Q9GZR1, 628-1112 limits assumed: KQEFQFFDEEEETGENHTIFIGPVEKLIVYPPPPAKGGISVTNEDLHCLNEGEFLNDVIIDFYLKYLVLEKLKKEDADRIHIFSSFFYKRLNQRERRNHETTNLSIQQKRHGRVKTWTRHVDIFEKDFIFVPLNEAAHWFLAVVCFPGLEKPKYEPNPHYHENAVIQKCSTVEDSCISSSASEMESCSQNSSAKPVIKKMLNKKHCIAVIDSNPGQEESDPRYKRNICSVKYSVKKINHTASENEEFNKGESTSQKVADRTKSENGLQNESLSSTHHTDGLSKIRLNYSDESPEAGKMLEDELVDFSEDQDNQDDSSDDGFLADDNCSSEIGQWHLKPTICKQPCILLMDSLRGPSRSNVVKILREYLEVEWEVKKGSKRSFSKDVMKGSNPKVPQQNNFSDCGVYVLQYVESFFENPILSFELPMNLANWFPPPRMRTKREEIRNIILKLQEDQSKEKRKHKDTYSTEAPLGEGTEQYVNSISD

The entries are a selection whose mix differs from that of the whole data set. Active and inactive are the calls of the source.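 The calls were made as follows: active = inhibition above about 50% at the single tested dose (limit read from the data); inactive = the rest.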

Usually inhibition stands for the drop in the measured response relative to a control, in per cent.

This experiment deals with Sentrin-specific protease 6 (Homo sapiens) (UniProt Q9GZR1). In words: inhibition of human SENP6 catalytic domain – biochemical, luminescence, uHTS, primary screen (AID 2599).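 Also: plate controls were DMSO wells with enzyme for no effect and DMSO wells lacking enzyme for full effect.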 The following applies: Recombinant SENP6 catalytic domain, aminoluciferin luminescence; at 10 µM; active compounds read high.
With `O=C(NCC1(N2CCOCC2)CCCCC1)c1cc(=O)[nH]c2ccccc12`, the inhibition is inactive: -5.87%.

In the case of `COc1cc(C(=O)NCC2(N3CCCCC3)CCCCC2)ccc1OC(F)F`, the inhibition was inactive: 8.87%.

Turning to `CC(C)c1ccc(C(=O)NCC2(N3CCOCC3)CCCCC2)cc1`, the inhibition is inactive: 1.22%.

On to `COc1ccc(NC2CCN(C(=O)OC(C)(C)C)CC2)cc1`, for which the inhibition was inactive: 1.08%.

As to `CN1CCN(CCOC(=O)C(O)(c2ccccc2)c2ccccc2)CC1`, the inhibition is inactive: 1.27%.

Turning to `O=C(NCC1(N2CCCCC2)CCCCC1)c1cccc(C(F)(F)F)c1`, the inhibition is inactive: -27.7%.

For `N#CC1(Nc2ccccc2)CCN(CCc2ccccc2)CC1`, the inhibition was inactive: -6.42%.

For `CCN1CCC(Nc2ccc(Cl)cc2)CC1`, the inhibition was inactive: 11.9%.

`O=C(NCC1(N2CCCCC2)CCCCC1)c1cccc([N+](=O)[O-])c1`: the inhibition is inactive: -25.8%.

As to `CSc1ccc(C(=O)NCC2(N3CCOCC3)CCCCC2)cc1`, the inhibition is inactive: -18.6%.

Turning to `O=C(NCC1(N2CCCCC2)CCCCC1)c1ccc(OC(F)F)cc1`, the inhibition is inactive: -5.48%.

As to `CN1CCC(Nc2cccc(F)c2)CC1`, the inhibition was inactive: -6.49%.

`O=C(NCC1(N2CCCCC2)CCCCC1)c1cncc(Br)c1`: the inhibition is inactive: -9.95%.

As for `O=C(NCC1(N2CCOCC2)CCCCC1)c1cc(F)c(F)cc1Cl`, the inhibition is inactive: -1.92%.

For `COc1cc(OC)c(C(=O)NCC2(N(C)C)CCCCC2)cc1OC`, the inhibition is inactive: -34%.

Take `CC(C)c1ccc(NC2CCN(C(=O)OC(C)(C)C)CC2)cc1`: the inhibition was inactive: -12.1%.

Turning to `CN(C)c1cccc(C(=O)NCC2(N3CCCCC3)CCCCC2)c1`, the inhibition was inactive: 10.5%.

`COc1ccc(CN(CCCl)CCCl)cc1Cl`: the inhibition was inactive: -10.1%.

Take `COc1ccc(Cl)cc1C(=O)NCC1(N2CCOCC2)CCCCC1`: the inhibition was inactive: 9.36%.

With `O=C(NCC1(N2CCCCC2)CCCCC1)c1ccc(Cl)s1`, the inhibition is inactive: -1.89%.

As for `N#CC1(Nc2ccccc2)CCN(Cc2ccccc2)CC1`, the inhibition was inactive: -14.2%.

Turning to `O=C(OC1CN2CCC1CC2)C1c2ccccc2Oc2ccccc21` (configuration not stated), the inhibition is inactive: 16.7%.

Regarding `CCOC(=O)N1CCC(Nc2ccc(OC)cc2)CC1`, the inhibition is inactive: -5.88%.

For `Cc1cc(C)cc(N(C(=O)c2ccccc2)C2CCN(C(=O)OC(C)(C)C)CC2)c1`, the inhibition is inactive: -28.9%.

Turning to `O=C(NCC1(N2CCCCC2)CCCCC1)c1ccc(Cl)nc1`, the inhibition is inactive: -17%.

On to `O=C(NCC1(N2CCOCC2)CCCCC1)c1cc2ccccc2o1`, for which the inhibition is inactive: -0.195%.

In the case of `CSc1ccccc1C(=O)NCC1(N2CCCCC2)CCCCC1`, the inhibition is inactive: -17.2%.

As to `CC(C)(C)OC(=O)N1CCC(N(C(=O)c2ccccc2)c2ccc(F)cc2)CC1`, the inhibition is inactive: 11.1%.

Turning to `COc1ccc(C(=O)NCC2(N3CCCCC3)CCCCC2)c(OC)c1OC`, the inhibition is inactive: -14.1%.

Take `COc1ccc(C(=O)NCC2(N3CCCCC3)CCCCC2)cc1`: the inhibition is inactive: -5.84%.

For `O=C(NCC1(N2CCCCC2)CCCCC1)c1cccs1`, the inhibition is inactive: 2.21%.

Turning to `O=C(NCC1(N2CCCCC2)CCCCC1)c1ccc(=O)[nH]c1`, the inhibition was inactive: -15.6%.

For the compound `Cc1ccc(OCC(C)C)c(CN(CCCl)CCCl)c1`, the inhibition is inactive: 0.083%.

As for `CCOC(=O)N1CCC(Nc2cccc(C)c2)CC1`, the inhibition is inactive: 10.5%.

For `CCOC(=O)N1CCC(Nc2ccc(F)cc2)CC1`, the inhibition is inactive: 3.76%.

As for `COc1ccc(NC2CCN(CCc3ccccc3)CC2)c(OC)c1`, the inhibition was inactive: -9.14%.

Take `CCCCOc1ccc(C(=O)NCC2(N3CCOCC3)CCCCC2)cc1`: the inhibition was inactive: 2.39%.

With `O=C(NCC1(N2CCCCC2)CCCCC1)c1ccc(F)cc1`, the inhibition was inactive: -13.7%.

With `CCOc1ccc(C)cc1CN(CCCl)CCCl`, the inhibition was inactive: -14.5%.

Consider `CN(C)c1ccc(C(=O)NCC2(N3CCCCC3)CCCCC2)cc1`, for which the inhibition is inactive: -12.2%.

Regarding `O=C(NCC1(N2CCCCC2)CCCCC1)c1ccco1`, the inhibition was inactive: -6.9%.

Take `CCN1CCC(Nc2cccc(F)c2)CC1`: the inhibition was inactive: 2.89%.

In the case of `Fc1ccccc1NC1CCN(Cc2ccccc2)CC1`, the inhibition is inactive: -82.2%.

`Cc1ccc(C(=O)NCC2(N3CCCCC3)CCCCC2)o1`: the inhibition was inactive: 0.055%.

Regarding `COc1cc(OC)cc(C(=O)NCC2(N3CCCCC3)CCCCC2)c1`, the inhibition is inactive: -1.54%.

As to `CN1CCC(Nc2ccc(Cl)cc2)CC1`, the inhibition was inactive: -5.07%.

Regarding `CCCOc1ccc(C)cc1CN(CCCl)CCCl`, the inhibition was inactive: -10.6%.

In the case of `COc1cccc(C(=O)N(c2cc(C)cc(C)c2)C2CCN(C(=O)OC(C)(C)C)CC2)c1`, the inhibition is inactive: 7.35%.

Consider `COc1cc(OC)cc(C(=O)NCC2(N3CCOCC3)CCCCC2)c1`, for which the inhibition is inactive: -21.4%.

On to `CCC(CO)(C(=O)OC1CN2CCC1CC2)c1ccccc1` (configuration not stated), for which the inhibition is inactive: -0.675%.

Regarding `O=C(O)C1(Nc2ccccc2)CCN(Cc2ccccc2)CC1`, the inhibition is inactive: -17.7%.

With `CC(C)(C)OC(=O)N1CCC(Nc2ccccc2)CC1`, the inhibition was inactive: -5.12%.

`CCCOc1ccc(C(=O)NCC2(N(C)C)CCCCC2)cc1`: the inhibition was inactive: -8.8%.

Turning to `CN1CCC(Nc2ccc(F)c(Cl)c2)CC1`, the inhibition is inactive: -6.48%.

Take `CCOc1ncccc1C(=O)NCC1(N2CCOCC2)CCCCC1`: the inhibition was inactive: 9.72%.

In the case of `CCc1cc(C(=O)NCC2(N3CCCCC3)CCCCC2)sc1C`, the inhibition is inactive: 3.59%.

With `O=C(OC1CN2CCC1CC2)C1c2ccccc2C=Cc2ccccc21` (configuration not stated), the inhibition is inactive: -17.2%.

As to `CCOC(=O)N1CCC(Nc2ccc(C)cc2)CC1`, the inhibition is inactive: 14.7%.

For the compound `N/C(=N\O)c1c(N)no[n+]1[O-]`, the inhibition is inactive: -13.6%.

As for `COc1ccc(C(=O)NCC2(N3CCOCC3)CCCCC2)cc1OC`, the inhibition is inactive: -8.37%.

As to `COc1cc(C(=O)NCC2(N3CCOCC3)CCCCC2)cc(OC)c1C`, the inhibition was inactive: 0.274%.

`O=C(NCC1(N2CCOCC2)CCCCC1)c1cc(Br)ccc1Cl`: the inhibition was inactive: -25.2%.

With `CN(C)C1(CNC(=O)c2cccc(C#N)c2)CCCCC1`, the inhibition is inactive: 16.7%.

Consider `CCCN1CCC(Nc2cc(OC)cc(OC)c2)CC1`, for which the inhibition was inactive: -6.48%.

For `c1ccc(CN2CCC(Nc3ccccc3)CC2)cc1`, the inhibition is inactive: 3.69%.

As for `N#Cc1ccc(C(=O)NCC2(N3CCCCC3)CCCCC2)cc1`, the inhibition was inactive: 27.2%.

Regarding `CC(C)(C)OC(=O)N1CCC(N(C(=O)c2ccccc2)c2ccc(Cl)cc2)CC1`, the inhibition was inactive: -4.94%.
